Measurements: patent US20260215432A1, “ANTIMICROBIAL CONJUGATED OLIGOELECTROLYTES AND METHODS THEREOF” (National University of Singapore, priority 2023, published 2026)

Key:
Assay in all cases: MIC, broth microdilution in CA-MHB
Format in all cases: cell-based
E. facium (ATCC 19434) = test system: E. facium (ATCC 19434)
Method: (§1) Antimicrobial activity was screened against a range of pathogens made up of clinically relevant ESKAPE pathogens by determination of the minimum inhibitory concentration (MIC) in cation-adjusted Mueller-Hinton broth (CA-MHB).
(§2) Minimum inhibitory concentrations of COEs were determined through a broth microdilution method in accordance with the Clinical and Laboratory Standards Institute (CLSI) guidelines M07-A10. A single bacterial colony was isolated from an overnight culture and grown to mid-log phase (OD600~0.8). Compounds were prepared as a stock solution in DMSO and diluted in a sterile flat-bottom 96-well plate in CA-MHB. Subsequent concentrations were prepared by two-fold dilution of the initial solution. An equivalent volume of bacteria was added to the compound to a final concentration of 5×10^5 cfu/mL. Plates were incubated at 37° C. for 16-18 hours, and read at OD600 using a microplate reader (TECAN Spark®). […] MIC values were determined for each compound in triplicate.

S. aureus (ATCC 29213) = test system: S. aureus (ATCC 29213)
Method: as §1, §2

[1] = test system: Methicillin-resistant S. aureus (ATCC BAA1717)
Method: as §1, §2

[2] = test system: E. faecalis OG1RF (ATCC 47077)
Method: as §1, §2

Polymyxin B [reference compound]
>128 µg/mL: MIC FAC (E. facium (ATCC 19434)) | MIC SA (S. aureus (ATCC 29213)) | MIC MRSA [1] | MIC FAE [2]
